Test results from US8415373B2, “Isoquinolinone derivatives as NK3 antagonists” (H. Lundbeck A/S, priority 2008, dated 2013).

The chains behind the UniProt entries cited, without tags or fusion partners.
UniProt P29371, whole entry: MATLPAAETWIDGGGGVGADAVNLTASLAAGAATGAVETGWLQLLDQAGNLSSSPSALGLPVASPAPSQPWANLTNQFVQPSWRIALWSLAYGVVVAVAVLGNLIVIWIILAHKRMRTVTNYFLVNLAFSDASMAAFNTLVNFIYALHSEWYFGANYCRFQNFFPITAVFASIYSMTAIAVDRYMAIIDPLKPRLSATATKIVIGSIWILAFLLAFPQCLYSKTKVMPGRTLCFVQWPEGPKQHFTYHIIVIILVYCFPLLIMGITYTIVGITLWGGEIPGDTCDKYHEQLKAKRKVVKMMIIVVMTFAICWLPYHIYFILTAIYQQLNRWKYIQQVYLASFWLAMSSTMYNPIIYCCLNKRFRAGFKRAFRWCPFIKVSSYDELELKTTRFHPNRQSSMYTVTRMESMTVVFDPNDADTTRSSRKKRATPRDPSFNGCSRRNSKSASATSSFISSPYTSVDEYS

Target: T1, human NK3 receptor (Homo sapiens, UniProt P29371)
T1 construct: expressed in transfected cells
Assay: NK3 receptor efficacy and potency assay (FLIPR Calcium 4)
Format: cell-based
Conditions: agonist dose-response in FLIPR
Description: BHK cells stably expressing the human NK3 receptor were seeded in 100 μl media in black walled clear-base 96-wells plates (Costar) aiming at a confluency of 95-100% at the day of assay. The assay was performed according to the FLIPR Calcium 4 Assay kit (Molecular Devices). At the day of the assay, the media was removed and the cells were washed once with the HBSS buffer (Hanks BSS buffer, pH 7.4 containing 20 mM Hepes) before 100 μl of a solution of the calcium assay reagent dissolved in the HBSS buffer containing 2.5 mM probinicid was added to the cells. The plates were incubated for 60 min at 34° C., 10% CO2 before use in the FLIPR for examination of fluorescence. […]
For efficacy and potency evaluation of compounds, these were diluted in HBSS buffer prior to test. For test of agonist activity, 25 μl of the diluted compound solution was added and the plate was analyzed for 5 minutes in the FLIPR. […] The plates were subsequently analyzed for 5 minutes before the assay was terminated. The maximal increase in fluorescence over background following each ligand addition was determined. The IC50 value was calculated using sigmoidal variable slope curve fitting, and the cIC50 value was determined using the equation (cIC50=IC50/(1+(EC85/EC50))), where EC85 and EC50 for NKB were determined as described above.

How did the “EC85 concentration of NKB” value turn out when neurokinin B [NKB] was run?
Its value is ~1 nM.
